The assay is described as follows: qHTS Assay for Enhancers of SMN2 Splice Variant Expression. Also: % of control where 0% means no effect; nearly all actives have a fitted effect of over 55% in size. As to conditions: HEK293 SMN2-luciferase splicing reporter, luminescence, 30-36 h.
The mark [1] stands for this setting: at 46.1 µM (top of the series) unless noted.

“And” between values parts separate entries of the source, which are not always exact repeats. Identical values can stand only once. This is a selection; strong and weak results do not stand in their true shares. Records with an inconclusive call do not appear. The source made the active and inactive calls. Calls follow the shape of the dose curve; as a rule, active = well fitted activation curve with a large enough effect; inconclusive = small, poorly fitted or top-dose-only effect; inactive = no such curve, though single readings can be large or run the other way.

In the case of `CCC(C)N(CC(C)C)C(=S)SC(NC(C)=O)C(Cl)(Cl)Cl` (stereo not given), the activity change, positive = activation under setting [1] is inactive: -30.4%.

With `CN(CCCl)Cc1cc(Cl)c(NC2=NCCN2)c(Cl)c1`, the activity change, positive = activation under setting [1] was inactive: -2.44% and inactive: 9.53%.

In the case of `CN(C(=O)Cc1ccc(Cl)c(Cl)c1)[C@@H]1CCCC[C@H]1N1CCCC1`, the activity change, positive = activation under setting [1] is inactive: -9.17% and inactive: -52%.

For the compound `CC(C)/C=N\N=C(\N)N[N+](=O)[O-]`, the activity change, positive = activation under setting [1] is inactive: -7.74%.

On to `CC1CCC(C(C)C)C(OP(=O)(Nc2ccccn2)c2ccccc2)C1` (stereo not given), for which the activity change, positive = activation under setting [1] was inactive: -38.8%.

Take `O=P1(Nc2ncccn2)COc2ccccc2OC1`: under setting [1], the activity change, positive = activation is inactive: 15.6%.

For `Cc1ccc(OCC(=O)OC2CN3CCC2CC3)cc1` (stereo not given), under setting [1], the activity change, positive = activation was inactive: -3.32%.

With `O=P(Nc1nccs1)(c1ccccc1)c1nc2ccccc2s1` (stereo not given), under setting [1], the activity change, positive = activation was inactive: 9.21%.

`O=P(Nc1nccs1)(Oc1ccccc1)Oc1ccccc1`: the activity change, positive = activation under setting [1] is inactive: -22.8%.

Turning to `CCOP1(=S)c2c(C)nn(CCC#N)c2N=C(c2ccccc2F)N1C` (stereo not given), under setting [1], the activity change, positive = activation is inactive: 4.68%.

On to `O=[As](O)(O)c1ccc([As](=O)(O)O)cc1`, for which, under setting [1], the activity change, positive = activation was inactive: 4.4% [at 9.22 µM].

For the compound `O=[N+]([O-])CC(O)c1ccc([N+](=O)[O-])cc1` (stereo not given), under setting [1], the activity change, positive = activation was inactive: 0.777%.

For the compound `NC(=O)Nc1ccc([As](=O)(O)O)cc1`, the activity change, positive = activation (at 20.6 µM (top of the series)) was inactive: -2.25% and the activity change, positive = activation (at 46.1 µM (top of the series)) was inactive: 9.24%.

On to `CN(C(=O)Cc1ccccc1)[C@@H]1CC[C@]2(CCCO2)C[C@H]1N1CCCC1`, for which the activity change, positive = activation under setting [1] was inactive: 2.43%.

`CCOP1(=S)c2c(C)nn(CCC#N)c2N=C(c2ccc(F)cc2)N1C` (stereo not given): the activity change, positive = activation under setting [1] was inactive: 3.12%.

For `O=[N+]([O-])c1ccc2c(c1)nnn2O`, the activity change, positive = activation under setting [1] is inactive: 4.58%.

As for `CN(C(=O)Cc1ccc(Cl)c(Cl)c1)[C@@H]1CC[C@]2(CCCO2)C[C@H]1N1CCCC1`, the activity change, positive = activation under setting [1] was inactive: -4.51% and inactive: -27.5%.

For the compound `COc1cc(C(=O)NCC2(N3CCOCC3)CCCCC2)cc(Cl)c1OC(C)C`, the activity change, positive = activation under setting [1] is inactive: 0.103%.

Consider `Cc1cccc(OCC(=O)OC2CN3CCC2CC3)c1` (stereo not given), for which the activity change, positive = activation under setting [1] is inactive: -5.14%.

Turning to `Cc1ccc(NCCc2c([N+](=O)[O-])cc([N+](=O)[O-])cc2[N+](=O)[O-])cc1`, the activity change, positive = activation under setting [1] is inactive: -19.2%.

Consider `O=C(CC(=O)c1ccccc1)O[C@H]1CN2CCC1CC2`, for which the activity change, positive = activation under setting [1] was inactive: 2.73% [at 9.22 µM].

For the compound `NS(=O)(=O)Cc1ccc([As](=O)(O)O)cc1`, the activity change, positive = activation under setting [1] was inactive: 0.212% [at 9.22 µM].

Turning to `CCOP(=O)(Nc1cccc2ccccc12)OCC`, the activity change, positive = activation under setting [1] was inactive: 23.1%.

With `COc1cc(C2NCCC3(OCCO3)C2(C)C)cc(OC)c1OC` (stereo not given), under setting [1], the activity change, positive = activation was inactive: 2.33%.

These data come from PubChem BioAssay AID1458 (National Center for Advancing Translational Sciences (NCATS), 2008).
